The experiment addresses T1, 5-HT1A receptors (Homo sapiens, UniProt P08908).
T1 construct: hippocampal membranes (400 μl; equivalent 1.25 mg wet weight tissue/tube) were incubated with 50 μl of 0.6 nM; tissue Edinburgh Sudden Death Brain Bank; host or cells: post-mortem human hippocampus membranes
Description: Radioligand ([3H]8-OH-DPAT) binding to 5-HT1A receptors in post-mortem human hippocampus membranes.

Sequences of proteins named here, by UniProt entry; tags and fusion partners are left off.
UniProt P08908, whole entry: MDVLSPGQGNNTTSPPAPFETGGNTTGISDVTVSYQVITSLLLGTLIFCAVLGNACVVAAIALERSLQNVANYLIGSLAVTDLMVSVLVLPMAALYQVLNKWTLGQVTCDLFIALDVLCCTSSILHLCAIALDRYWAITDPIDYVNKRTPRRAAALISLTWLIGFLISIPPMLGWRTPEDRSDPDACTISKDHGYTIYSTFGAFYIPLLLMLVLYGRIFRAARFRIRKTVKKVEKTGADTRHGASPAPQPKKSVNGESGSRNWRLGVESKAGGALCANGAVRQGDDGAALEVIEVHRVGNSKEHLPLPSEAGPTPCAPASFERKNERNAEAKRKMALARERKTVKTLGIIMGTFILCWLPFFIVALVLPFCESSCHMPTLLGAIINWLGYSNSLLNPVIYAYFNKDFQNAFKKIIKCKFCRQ

In turn, `COc1ccc2[nH]cc(CCN(C)C)c2c1` [5-MeO-DMT] returned a Ki of 1.8 nM.

What is called Ki is the dissociation constant of the complex between target and ligand, obtained from inhibition or displacement. A high value points to weaker binding.

Values taken from US20240108601A1, “TREATMENT OF MENTAL DISORDERS” (GH Research Ireland Limited, priority 2022, published 2024).
